Experiments:
[1] = tested on: thyroid cancer cell line (TT); test: Tumor cell proliferation inhibition (CTG, 72 h); type: cell-based; details: Homo sapiens, read-out: TT range of activity (IC50)
[2] = tested on: bladder cancer cell line (RT112/84); test: Tumor cell proliferation inhibition (CTG, 72 h); type: cell-based; details: Homo sapiens, RT112/84, read-out: RT112/84 range of activity (IC50)

IC50 [1]: > 10 µM | IC50 [2]: > 1000 nM
Compound: CNC(=O)c1cc(Oc2ccc(NC(=O)Nc3ccc(Cl)c(C(F)(F)F)c3)cc2)ccn1 [Sorafenib, reference compound]

Source: patent publication US12071408B2 (dated 2024)
